# Ab-14 heavy chain CDR variants: yeast mating affinities

Source: Engelhart et al. 2022 (doi:10.1038/s41597-022-01779-4), MIT Lincoln Laboratory and A-Alpha Bio; data file from the FLAb repository.

All variants were tested on one target, the spike HR2 peptide PDVDLGDISGINAS (SARS-CoV-2).

Each scFv is VH, a 15-residue (Gly4Ser)3 linker, VL, as in the parent Ab-14, and differs from it in the CDRs of the heavy chain only.
VH: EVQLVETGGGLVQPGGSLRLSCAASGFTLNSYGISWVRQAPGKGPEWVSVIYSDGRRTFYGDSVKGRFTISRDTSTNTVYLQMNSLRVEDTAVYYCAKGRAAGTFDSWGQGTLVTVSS
VL: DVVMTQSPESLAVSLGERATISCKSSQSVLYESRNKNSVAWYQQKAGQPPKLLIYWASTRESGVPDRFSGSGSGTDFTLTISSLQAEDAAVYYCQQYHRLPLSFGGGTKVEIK

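Phage display of a naive human antibody library on the peptide gave the parent. The library (AAYL49) carries one to three amino acid substitutions per variant, with no insertions or deletions. The scFvs were displayed on barcoded MATa yeast, the peptide on MATalpha yeast. Mating (16 h, 30 °C) was followed by selection of diploids and sequencing of their barcodes. Each replicate has its own calibration line, from reference interactions of the BCL2 family. There are three technical replicates.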

Variants are written as CDR1, CDR2 and CDR3 of the heavy chain (limits as in the source). Parent: GFTLNSYGIS, VIYSDGRRTFYGDSVK, GRAAGTFDS.
Numbers give log10(Kd / nM), so 0 is 1 nM and 3 is 1 µM. Smaller is tighter.
An entry "n.d." has no value in the source: the pair was not observed among the diploids in that replicate. This suggests poor binding but is not conclusive.
In this assay the parent's reference entry averaged 0.65; its copy inside this library read 4.11 (one replicate of three).
Empty control strains, which show no peptide, gave a signal in 15% of pairings with library AAYL49; the median was 4.06 and 95% of these signals were weaker than 2.83. No background was subtracted. The control count says in how many pairings with the empty strains this scFv gave a signal, with their mean in brackets.

CDR-H1 | CDR-H2 | CDR-H3 | log10 Kd, replicates | control signals
GPTLNSYGIS | VIYSDGRVTFYGDSWK | GRAAGTFDS | n.d. n.d. 4.62 | 3 of 9 (4.31)
GFTLISYGIS | VIYSDGRRTFYGDRVK | GRAAGTFDT | n.d. n.d. n.d. | 0 of 9
GRTLNSYGIS | VIYSDGRRTFYCDSVK | GRAAGIFDS | n.d. n.d. n.d. | 0 of 9
GFTLNSSGIS | VIYSDGYRTFYGDSVK | GRAAGTFDQ | n.d. n.d. n.d. | 0 of 9
GFELNSCGIS | VIYSDGRRTFYGDSVK | GRAAGTFDS | 2.36 1.81 2.74 | 1 of 9 (3.94)
GMTLKSYGIS | VYYSDGRRTFYGDSVK | GRAAGTFDS | 5.76 n.d. 3.76 | 3 of 9 (4.30)
GFRLNSYGIS | VIYSDGRRTFYGDSVK | QRAAGQFDS | n.d. n.d. n.d. | 0 of 9
GFTLNSYGID | VIYSDGRRTDYPDSVK | GRAAGTFDS | 4.59 4.32 4.02 | 3 of 9 (3.60)
GFTLNSYGIS | VIYSDHRRTFYGQSVK | GRAAGNFDS | n.d. n.d. n.d. | 1 of 9 (3.99)
GFTLNSYGIS | VPYSKGRYTFYGDSVK | GRAAGTFDS | n.d. n.d. n.d. | 0 of 9
GFLHNSYGIS | VIYSDGRRHFYGDSVK | GRAAGTFDS | n.d. n.d. n.d. | 1 of 9 (3.71)
EFTLNSYGFS | VQYSDGRRTFYGDSVK | GRAAGTFDS | n.d. 4.56 n.d. | 0 of 9
GFTLNSYGIS | VIYSDHYRTFYGDFVK | GRAAGTFDS | 3.90 n.d. 3.57 | 2 of 9 (4.18)
GFGDNSYGIQ | VIYSDGRRTFYGDSVK | GRAAGTFDS | n.d. n.d. n.d. | 1 of 9 (1.95)
GFTLNSYGIS | VIYSDGRRTFYGDSVR | LKAAGTFDS | n.d. n.d. n.d. | 1 of 9 (3.83)
GFTLHSYGIS | VIYSDCRRTFYGDSVK | GYAAGTFDS | n.d. 4.48 n.d. | 1 of 9 (3.50)
GFTLNLYGIS | VIYSDGRRVFYGESVK | GRAAGTFDS | 2.62 2.11 2.76 | 1 of 9 (3.73)
GFTLNSYGIG | VIYSDGRNTFCGDSVK | GRAAGTFDS | 5.42 n.d. n.d. | 2 of 9 (3.13)
GFTLNSYRIS | VYYSDGDRTFYGDSVK | GRAAGTFDS | 4.16 n.d. 3.75 | 3 of 9 (4.54)
GFTLNSFGIS | VIYSDGRRTFYGDSPK | GRAAGTDDS | 4.96 n.d. n.d. | 4 of 9 (4.19)
GFTLPSYGIS | VIYSDGRRTAYGDSVK | GRAAGTFDA | 1.41 1.56 1.45 | 1 of 9 (3.92)
GFTLNSYGVS | VIYSDGRRTIYGDSVH | GRAAGTFDS | 4.44 n.d. n.d. | 1 of 9 (2.84)
GFTLNSYGPS | VIYSDGRRTFYGDSVK | GRAAGTFDS | 5.92 n.d. n.d. | 0 of 9
GFTLNSYGIS | VIISDGWRTFYGDSVK | GRAAGTFDS | n.d. n.d. n.d. | 0 of 9
GATLNSYGIM | VIYSDGRRTFYGDSVK | GRAAGGFDS | 3.43 n.d. n.d. | 0 of 9
GFTLNSYSIS | SIYSDGRRTFYGDSVK | GRAAGTFDS | n.d. n.d. 4.72 | 4 of 9 (4.28)
GFTLNSYGGR | VIYSDGRRTFYGDSCK | GRAAGTFDS | n.d. n.d. n.d. | 0 of 9
GFTLNSYGIS | VIYSKGRRTFYGDSVK | QRAAGTFES | n.d. n.d. n.d. | 1 of 9 (3.84)
GFTHNSYGIS | VIYSDGRRTFYGDSVH | GCAAGTFDS | n.d. n.d. n.d. | 0 of 9
GFHLNSYGIS | EIYSDGRRVFYGDSVK | GRAAGTFDS | 4.84 n.d. 5.25 | 2 of 9 (4.55)
GFTLNSYGIS | VIFSDGRRTFYGDSVK | GRVKGTFDS | n.d. 2.85 n.d. | 1 of 9 (3.45)